Data reported in US20240245666A1, “DOSING REGIMENS” (Novartis AG, priority 2021, published 2024).

Test: Phase I study, FE study group: asciminib under fasted, low-fat meal and high-fat meal conditions (PK and safety);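 also: healthy volunteers, open-label single-center study, PK parameters from individual plasma concentration-time profiles by non-compartmental analysis, 7-day washout between treatment periods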

O=C(Nc1ccc(OC(F)(F)Cl)cc1)c1cnc(N2CC[C@@H](O)C2)c(-c2ccn[nH]2)c1 [asciminib, N-[4-(Chlorodifluoromethoxy)phenyl]-6-[(3R)-3-hydroxypyrrolidin-1-yl]-5-(1H-pyrazol-5-yl)pyridine-3-carboxamide]
AE severity and serious AEs: all AEs were CTCAE Grade 1 or 2, and there were no serious AEs | tolerability (single doses of 40 mg asciminib): well tolerated
